Biological target: GIPR variants (groups)
Details: remaining 24 LoF variants

With “glucose-dependent insulinotropic polypeptide [GIP]” as the substance, how does the “Affinity (Kd) for GIP” value read?
Its value is “high affinity (Kd) for GIP was retained”.

Reference: publication PMC11272584 (Nature Metabolism, 2024)
